Laboratory results from the NIST ThermoML archive (doi:10.1016/j.fluid.2018.09.026).
Several values for one entry are separate records, joined by “and”; a condition that tells them apart may be missing. Equal entries are not always repeated. Numbers after ± are expanded uncertainties.

Details: Liquid; for mass density: Vibrating tube method; for viscosity: 362.6 K, Vibrating wire viscometry

OCCOCCOCCOCCO [tetraethylene glycol]
Details	mass density [kg/m3]
343.15 K, 2060 kPa	1083.2 ± 4.3
343.15 K, 3100 kPa	1083.7 ± 4.3
343.15 K, 5040 kPa	1084.8 ± 4.4
343.15 K, 6870 kPa	1085.8 ± 4.4
343.15 K, 9930 kPa	1087.4 ± 4.4
343.15 K, 14830 kPa	1090 ± 4.4
343.15 K, 19790 kPa	1092.5 ± 4.4
343.15 K, 24630 kPa	1095 ± 4.4
343.15 K, 29580 kPa	1097.4 ± 4.4
343.15 K, 34440 kPa	1099.7 ± 4.4
343.15 K, 39430 kPa	1102.1 ± 4.4
343.15 K, 44410 kPa	1104.4 ± 4.4
343.15 K, 49170 kPa	1106.5 ± 4.5
343.15 K, 54160 kPa	1108.6 ± 4.5
343.15 K, 58970 kPa	1110.7 ± 4.5
343.15 K, 63920 kPa	1112.8 ± 4.5
343.15 K, 68720 kPa	1114.7 ± 4.5
353.15 K, 100 kPa	1074.1 ± 4.3
353.15 K, 560 kPa	1074.4 ± 4.3
353.15 K, 1190 kPa	1074.7 ± 4.3
353.15 K, 1660 kPa	1075 ± 4.3
353.15 K, 2160 kPa	1075.3 ± 4.3
353.15 K, 3100 kPa	1075.8 ± 4.3
353.15 K, 5040 kPa	1076.9 ± 4.3
353.15 K, 6910 kPa	1078 ± 4.3
353.15 K, 10040 kPa	1079.7 ± 4.3
353.15 K, 14770 kPa	1082.3 ± 4.3
353.15 K, 19790 kPa	1085 ± 4.4
353.15 K, 24570 kPa	1087.5 ± 4.4
353.15 K, 29460 kPa	1090 ± 4.4
353.15 K, 34560 kPa	1092.5 ± 4.4
353.15 K, 39340 kPa	1094.8 ± 4.4
353.15 K, 44310 kPa	1097.2 ± 4.4
353.15 K, 49190 kPa	1099.5 ± 4.4
353.15 K, 54020 kPa	1101.6 ± 4.4
353.15 K, 59160 kPa	1103.9 ± 4.4
353.15 K, 63870 kPa	1106 ± 4.5
353.15 K, 68800 kPa	1108 ± 4.5
363.15 K, 100 kPa	1066.1 ± 4.3
363.15 K, 650 kPa	1066.5 ± 4.3
363.15 K, 1150 kPa	1066.7 ± 4.3
363.15 K, 1550 kPa	1067 ± 4.3
363.15 K, 2070 kPa	1067.2 ± 4.3
363.15 K, 3090 kPa	1067.9 ± 4.3
363.15 K, 5060 kPa	1069 ± 4.3
363.15 K, 7010 kPa	1070.2 ± 4.3
363.15 K, 9860 kPa	1071.8 ± 4.3
363.15 K, 14820 kPa	1074.7 ± 4.3
363.15 K, 19750 kPa	1077.4 ± 4.3
363.15 K, 24740 kPa	1080.1 ± 4.3
363.15 K, 29560 kPa	1082.6 ± 4.3
363.15 K, 34540 kPa	1085.2 ± 4.4
363.15 K, 39360 kPa	1087.6 ± 4.4
363.15 K, 44280 kPa	1090.1 ± 4.4
363.15 K, 49130 kPa	1092.3 ± 4.4
363.15 K, 54040 kPa	1094.7 ± 4.4
363.15 K, 59030 kPa	1097 ± 4.4
363.15 K, 63900 kPa	1099.1 ± 4.4
363.15 K, 68810 kPa	1101.6 ± 4.4

Details	viscosity
200 kPa	4.755 ± 0.19 mPa·s and 4.776 ± 0.2 mPa·s
210 kPa	4.772 ± 0.2 mPa·s [middle of 5 runs]
220 kPa	4.782 ± 0.2 mPa·s
550 kPa	4.755 ± 0.19 mPa·s and 4.773 ± 0.2 mPa·s and 4.788 ± 0.2 mPa·s
560 kPa	4.783 ± 0.2 mPa·s [middle of 5 runs]
570 kPa	4.774 ± 0.2 mPa·s
1370 kPa	4.809 ± 0.2 mPa·s and 4.792 ± 0.2 mPa·s and 4.804 ± 0.2 mPa·s
1380 kPa	4.833 ± 0.21 mPa·s and 4.837 ± 0.21 mPa·s and 4.846 ± 0.21 mPa·s
2190 kPa	4.862 ± 0.2 mPa·s
2200 kPa	4.875 ± 0.2 mPa·s
2260 kPa	4.835 ± 0.2 mPa·s [middle of 6 runs]
6010 kPa	4.989 ± 0.2 mPa·s
6020 kPa	5.019 ± 0.2 mPa·s [middle of 5 runs]
10540 kPa	5.137 ± 0.21 mPa·s
10550 kPa	5.165 ± 0.21 mPa·s [middle of 5 runs]
15100 kPa	5.33 ± 0.22 mPa·s
15110 kPa	5.326 ± 0.22 mPa·s [middle of 4 runs]
19840 kPa	5.52 ± 0.23 mPa·s [middle of 5 runs]
29710 kPa	5.931 ± 0.24 mPa·s
29720 kPa	5.941 ± 0.24 mPa·s [middle of 4 runs]
29730 kPa	5.921 ± 0.24 mPa·s
50180 kPa	6.768 ± 0.28 mPa·s
70370 kPa	7.804 ± 0.32 mPa·s
70380 kPa	7.821 ± 0.32 mPa·s
70430 kPa	7.826 ± 0.32 mPa·s
70450 kPa	7.826 ± 0.32 mPa·s
